Nine compounds from US9090618B2, “Substituted benzimidazole-type piperidine compounds and uses thereof” (dated 2015) can be followed below.

Structures are written as SMILES.

The first test has as its target T1, human opioid receptor-like (ORL-1) (Homo sapiens (Human), UniProt P41146). Description: In vitro ORL-1 receptor [35S]GTPγS functional assay.
Conditions: not given
`c1ccc2c(c1)nc(-c1c[nH]cn1)n2[C@H]1C[C@H]2CCC[C@@H](C1)N2[C@@H]1C[C@@H]2CCCC[C@@H](C2)C1` gave an EC50 of 28.4 nM. This counts as double-digit nanomolar.
Still for that read-out and setting: under `O=C(O)CN1CCC/C(=C2/N(CC(=O)O)c3ccccc3N2[C@H]2C[C@H]3CCC[C@@H](C2)N3[C@@H]2C[C@@H]3CCCC[C@@H](C3)C2)C1` stands 67 nM.
`NC(=O)/N=c1\[nH]c2ccccc2n1C1CCN(C2CCCCCCC2)CC1`: the 50% effective concentration (EC50) worked out at 91.4 nM.
Compound `Cn1cc(Cl)c(-c2nc3ccccc3n2[C@H]2C[C@H]3CCC[C@@H](C2)N3[C@@H]2C[C@@H]3CCCC[C@@H](C3)C2)n1` gave an EC50 of 22.6 nM.
On the same count and under the same terms, under `CCN(CC)C(=O)CN1CCC[C@H]1Cc1nc2ccccc2n1[C@H]1C[C@H]2CCC[C@@H](C1)N2[C@@H]1C[C@@H]2CCCC[C@@H](C2)C1` stands 355 nM.
`O=C(O)CN1CCN(Cc2nc3ccccc3n2[C@H]2C[C@H]3CCC[C@@H](C2)N3[C@H]2C[C@@H]3CCC[C@@H](C3)C2)CC1` yielded a concentration giving a half-maximal response (EC50) of 136 nM.
With `O=C(O)CCN1CCC[C@H](c2nc3ccccc3n2[C@H]2C[C@H]3CCC[C@@H](C2)N3[C@@H]2C[C@@H]3CCCC[C@@H](C3)C2)C1`, the EC50 was 78 nM.
`O=C(O)CN1CCC[C@H]1Cc1nc2ccccc2n1[C@H]1C[C@H]2CCC[C@@H](C1)N2[C@@H]1C[C@@H]2CCCC[C@@H](C2)C1` registered a half-maximal effective concentration (EC50) of 72.5 nM. The EC50 values of the last two compounds are within 1.5-fold of each other.
For the compound `O=C(O)CCN1CCC(Cc2nc3ccccc3n2[C@H]2C[C@H]3CCC[C@@H](C2)N3[C@@H]2C[C@@H]3CCCC[C@@H](C3)C2)CC1`, the EC50 stood at 139 nM.

Still in this test, the particulars now being: ORL-1 receptor activity response, procedure of Example 22.
Regarding `c1ccc2c(c1)nc(-c1c[nH]cn1)n2[C@H]1C[C@H]2CCC[C@@H](C1)N2[C@@H]1C[C@@H]2CCCC[C@@H](C2)C1`, the “GTPγS ORL-1 Emax [mean ± SEM]” value worked out at 26 ± 2%.
On the same count and under the same terms, under `O=C(O)CN1CCC/C(=C2/N(CC(=O)O)c3ccccc3N2[C@H]2C[C@H]3CCC[C@@H](C2)N3[C@@H]2C[C@@H]3CCCC[C@@H](C3)C2)C1` stands 60 ± 1%; under `NC(=O)/N=c1\[nH]c2ccccc2n1C1CCN(C2CCCCCCC2)CC1`, 90.7 ± 3.5%; under `Cn1cc(Cl)c(-c2nc3ccccc3n2[C@H]2C[C@H]3CCC[C@@H](C2)N3[C@@H]2C[C@@H]3CCCC[C@@H](C3)C2)n1`, 29.3 ± 0.9%.
On the same count and under the same terms, under `CCN(CC)C(=O)CN1CCC[C@H]1Cc1nc2ccccc2n1[C@H]1C[C@H]2CCC[C@@H](C1)N2[C@@H]1C[C@@H]2CCCC[C@@H](C2)C1` stands 48.7 ± 1.8%; under `O=C(O)CN1CCN(Cc2nc3ccccc3n2[C@H]2C[C@H]3CCC[C@@H](C2)N3[C@H]2C[C@@H]3CCC[C@@H](C3)C2)CC1`, 36.0 ± 3.2%; under `O=C(O)CCN1CCC[C@H](c2nc3ccccc3n2[C@H]2C[C@H]3CCC[C@@H](C2)N3[C@@H]2C[C@@H]3CCCC[C@@H](C3)C2)C1`, 41.7 ± 3.8%.
Still for that read-out and setting: under `O=C(O)CN1CCC[C@H]1Cc1nc2ccccc2n1[C@H]1C[C@H]2CCC[C@@H](C1)N2[C@@H]1C[C@@H]2CCCC[C@@H](C2)C1` stands 40.7 ± 0.9%; under `O=C(O)CCN1CCC(Cc2nc3ccccc3n2[C@H]2C[C@H]3CCC[C@@H](C2)N3[C@@H]2C[C@@H]3CCCC[C@@H](C3)C2)CC1`, 75.67 ± 0.88%.

For a further test, the target named is human μ-receptors (Homo sapiens (Human), UniProt P35372). Put plainly: In vitro mu-opioid receptor [35S]GTPγS functional assay.
Conditions: not given
A general note: GTPγS is a poorly hydrolysed GTP analogue; its binding reports G protein activation.
The compound `c1ccc2c(c1)nc(-c1c[nH]cn1)n2[C@H]1C[C@H]2CCC[C@@H](C1)N2[C@@H]1C[C@@H]2CCCC[C@@H](C2)C1` gave a concentration for a half-maximal effect (EC50) of 564 nM. In other words, the sub-micromolar range.
Turning to `NC(=O)/N=c1\[nH]c2ccccc2n1C1CCN(C2CCCCCCC2)CC1`, the EC50 was 2760 nM.
`Cn1cc(Cl)c(-c2nc3ccccc3n2[C@H]2C[C@H]3CCC[C@@H](C2)N3[C@@H]2C[C@@H]3CCCC[C@@H](C3)C2)n1` gave a concentration for a half-maximal effect (EC50) of 4750 nM. This EC50 lies about 1.7-fold higher than the previous one.

A further test concerns the target kappa opioid receptor (Homo sapiens (Human), UniProt P41145). Put plainly: In vitro kappa-opioid receptor [35S]GTPγS functional assay.
Conditions: not given
`c1ccc2c(c1)nc(-c1c[nH]cn1)n2[C@H]1C[C@H]2CCC[C@@H](C1)N2[C@@H]1C[C@@H]2CCCC[C@@H](C2)C1` gave an EC50 of over 20 µM.
`O=C(O)CN1CCC/C(=C2/N(CC(=O)O)c3ccccc3N2[C@H]2C[C@H]3CCC[C@@H](C2)N3[C@@H]2C[C@@H]3CCCC[C@@H](C3)C2)C1` showed a 50% effective concentration (EC50) of over 20 µM.
Same read-out and setting: under `NC(=O)/N=c1\[nH]c2ccccc2n1C1CCN(C2CCCCCCC2)CC1` stands 0.824 µM; under `Cn1cc(Cl)c(-c2nc3ccccc3n2[C@H]2C[C@H]3CCC[C@@H](C2)N3[C@@H]2C[C@@H]3CCCC[C@@H](C3)C2)n1`, over 20 µM; under `O=C(O)CCN1CCC[C@H](c2nc3ccccc3n2[C@H]2C[C@H]3CCC[C@@H](C2)N3[C@@H]2C[C@@H]3CCCC[C@@H](C3)C2)C1`, over 20 µM.
Still for that read-out and setting: under `O=C(O)CN1CCC[C@H]1Cc1nc2ccccc2n1[C@H]1C[C@H]2CCC[C@@H](C1)N2[C@@H]1C[C@@H]2CCCC[C@@H](C2)C1` stands over 20 µM; under `O=C(O)CCN1CCC(Cc2nc3ccccc3n2[C@H]2C[C@H]3CCC[C@@H](C2)N3[C@@H]2C[C@@H]3CCCC[C@@H](C3)C2)CC1`, over 20 µM.

A further test deals with T1, human opioid receptor-like (ORL-1). Put plainly: In vitro ORL-1 receptor binding assay ([3H]-nociceptin displacement).
Conditions: not given
Regarding `CCN(CC)C(=O)CN1CCC[C@H]1Cc1nc2ccccc2n1[C@H]1C[C@H]2CCC[C@@H](C1)N2[C@@H]1C[C@@H]2CCCC[C@@H](C2)C1`, the Ki was determined as 167 nM.
On the same count and under the same terms, under `O=C(O)CN1CCC[C@H]1Cc1nc2ccccc2n1[C@H]1C[C@H]2CCC[C@@H](C1)N2[C@@H]1C[C@@H]2CCCC[C@@H](C2)C1` stands 49 nM.

For the next test, the target named is human μ-opioid receptors (Homo sapiens (Human), UniProt P35372). Description: In vitro mu-opioid receptor binding assay ([3H]-diprenorphine displacement).
Conditions: not given
For the compound `O=C(O)CN1CCC/C(=C2/N(CC(=O)O)c3ccccc3N2[C@H]2C[C@H]3CCC[C@@H](C2)N3[C@@H]2C[C@@H]3CCCC[C@@H](C3)C2)C1`, the inhibitory constant (Ki) was 11.8 µM.
Still for that read-out and setting: next, `O=C(O)CN1CCN(Cc2nc3ccccc3n2[C@H]2C[C@H]3CCC[C@@H](C2)N3[C@H]2C[C@@H]3CCC[C@@H](C3)C2)CC1`: over 20 µM; `O=C(O)CCN1CCC[C@H](c2nc3ccccc3n2[C@H]2C[C@H]3CCC[C@@H](C2)N3[C@@H]2C[C@@H]3CCCC[C@@H](C3)C2)C1`: over 20 µM; `O=C(O)CCN1CCC(Cc2nc3ccccc3n2[C@H]2C[C@H]3CCC[C@@H](C2)N3[C@@H]2C[C@@H]3CCCC[C@@H](C3)C2)CC1`: over 20 µM.

The target of a further test is recombinant delta opioid receptor expressed in CHO-K1 cells (Homo sapiens (Human), UniProt P41143). Put plainly: In vitro delta-opioid receptor binding assay ([3H]-Naltrindole displacement).
Conditions: not given
In the case of `c1ccc2c(c1)nc(-c1c[nH]cn1)n2[C@H]1C[C@H]2CCC[C@@H](C1)N2[C@@H]1C[C@@H]2CCCC[C@@H](C2)C1`, the Ki was over 20 µM.
Turning to `O=C(O)CN1CCC/C(=C2/N(CC(=O)O)c3ccccc3N2[C@H]2C[C@H]3CCC[C@@H](C2)N3[C@@H]2C[C@@H]3CCCC[C@@H](C3)C2)C1`, the Ki stood at 12.1 µM.
The same measure, in the same setting: next, `O=C(O)CCN1CCC[C@H](c2nc3ccccc3n2[C@H]2C[C@H]3CCC[C@@H](C2)N3[C@@H]2C[C@@H]3CCCC[C@@H](C3)C2)C1`: over 20 µM; `O=C(O)CCN1CCC(Cc2nc3ccccc3n2[C@H]2C[C@H]3CCC[C@@H](C2)N3[C@@H]2C[C@@H]3CCCC[C@@H](C3)C2)CC1`: over 20 µM.

In general, EC50 refers to the concentration giving half of the maximal effect. A higher EC50 goes with a less potent agent. One may read the Ki as the dissociation constant of the complex between target and ligand, obtained from inhibition or displacement.
